Test results: patent US7244578B2, “Methods for modeling infectious disease and chemosensitivity in cultured cells and tissues” (Department of Veterans Affairs, priority 2001, dated 2007)

Tested on: immortalized human renal cells
Assay: chemosensitivity of renal cells to gentamicin, apoptotic and necrotic cells counted by flow cytometry
Format: cell-based
Conditions: 3D cultures in a rotating wall vessel; gentamicin 0.05, 0.5, 5 or 50 mg/ml; DMEM/F12 with 10% calf serum; not seen in monolayer or bag culture on beads
Procedure: Immortalized human renal cells were cultured for 24 hours in either a monolayer (diamonds), as 3D cultures in a bag with beads for support (squares), or as 3D cultures in a rotating wall vessel (triangles), and treated with 0.05, 0.5, 5 or 50 mg/ml throughout the time period of the culture.
In order to compare the chemosensitivity of cells in a monolayer relative to those in a 3D aggregate either under static conditions, or falling at terminal velocity with applied shear, immortalized human renal cells were cultured in DMEM/F12 medium with 10% calf serum for 24 hours in either a Monolayer, a conventional cell bag culture or a rotating wall vessel. In separate aliquots of cells in separate vessels, gentamicin was added throughout the time period of culture at concentrations of 0.05, 0.5, 5 or 50 mg/ml. The cells in all cultures were then treated with gentamicin for six hours and the number of apoptotic and necrotic cells were counted using a flow cytometry assay. FIG. 10 depicts one data set for this experiment in which the monolayer is depicted as diamonds, the 3-dimensional cultures grown on beads in a bag are depicted as squares, and the 3-dimensional cultures in the rotating wall vessel are depicted as triangles. As judged by Kogomorov-Smirnoff summation statistics, renal cell growth on beads under static condition increases basal cell death rates.

gentamicin
cell death (number of apoptotic and necrotic cells) in response to gentamicin: induced dose-dependent cell death
